PDI turbidity = PDI (human) enzyme inhibition; PDI insulin aggregation turbidity, A650, 90 min; inhibition, % at 10 µM; 0.052% of 350,000 active;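 active = mean inhibition across replicates of 30% or more, whatever share of single replicates reach that level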
S100A4 MyoIIA = blocks human S100A4 binding to myosin IIA peptide. S100A4/TAMRA-MyoIIA peptide fluorescence polarization. AID 652163. inhibition, % at 10.7 µM. 0.14% of 360,000 active;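 active = mean inhibition of at least 70% across replicates, with every replicate also reaching that level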
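Assay system: human S100A4 monomer with TAMRA-labelled myosin IIA peptide / Buffer or medium: Calcium-containing HEPES buffer, pH 7.2 / Reagent: TAMRA-labelled myosin IIA heavy-chain peptide probe, 5 nM / Compound: one dose per compound / Timing: polarization read 5 min after assay mix addition, stable 5–60 min / Benchmarks: neutral control DMSO, positive control TFP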
UUG fidelity = alters start codon recognition fidelity in yeast. S. cerevisiae UUG-firefly luciferase reporter, luminescence/redox ratio. 350,000 tested, 0.13% active. activity score, % at 18.7 µM. AID 602363;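 active means replicate mean at a twofold rise or more, about +100% in these data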;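 further: firefly luciferase made from a UUG start codon reports start codon fidelity; reporter light over untreated wells divided by growth signal over untreated wells; some hits fall short of that in this replicate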
SIRT5 block = sirtuin-5 (human) deacylase inhibition; 1.1% of 330,000 active; Purified SirT5, succinyl-peptide AMC, trypsin-coupled fluorescence; Q9NXA8; inhibition, % at 15 µM; in the data active = inhibition above about 15%
FGF22 binding = binders of recombinant human FGF22 by thermal shift; SYPRO orange fluorescence; percent of sucrose octasulfate shift, DMSO zero; Q9HCT0; 1.5% of 340,000 active; activity (Tm shift, normalised), % at 9.99 µM;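 active = mean Tm shift, scaled 0 neutral to 100 positive control, at about 1.3% or above, every replicate too, limit read from the data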
ERp5 inh = ERp5 (human) disulfide isomerase inhibition | ERp5 insulin aggregation, absorbance 650 nm, 90 min | inhibition, % at 9.99 µM | 0.05% of 350,000 active;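 active = mean replicate inhibition above about 25%, with every replicate also reaching it, limit read from the data, passing the limit was not always enough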
Large screens that a line does not name were inactive. Hits are enriched below; roughly 2.2% of the tested compounds scored in any of these assays.

COc1ccc(-n2c(-c3ccccc3Br)nc3ccccc3c2=O)cc1	SIRT5 block 35
COc1cccc(CN2CC3(C2)[C@H](c2ccccc2)[C@H](CO)N3C(=O)Cc2ccccc2)c1	none (no result: PDI turbidity, UUG fidelity)
CCOC(=O)c1ccc(N=Cc2c(O)n(-c3ccc(OC)cc3)c(=S)[nH]c2=O)cc1	none (no result: UUG fidelity)
CCOC(=O)c1ccc(N=Cc2c(O)n(-c3ccccc3F)c(=S)[nH]c2=O)cc1	S100A4 MyoIIA 122
CC=Cc1ccc2n(c1=O)C[C@H]1[C@H](CO)[C@@H](C(=O)OC)[C@@H]2N1CC1CCOCC1 (mixture of isomers)	none (no result: PDI turbidity, UUG fidelity)
O=C(O)CC1OCC=C2CN3CCC45c6ccccc6NC4C1C2CC35 (configuration not stated)	none
O=C(O)CC1OCC=C2CN3CCC45C6=CC(=O)C(=O)C([N+](=O)[O-])=C6NC4C1C2CC35 (configuration not stated)	PDI turbidity 75 (no result: S100A4 MyoIIA, SIRT5 block, FGF22 binding, ERp5 inh)
CC=Cc1ccc2n(c1=O)C[C@H]1[C@H](CO)[C@@H](C(=O)O)[C@@H]2N1S(=O)(=O)c1ccccc1F (mixture of isomers)	none (no result: PDI turbidity, UUG fidelity)
NS(=O)(=O)OC(CCc1ccccc1)C(Cl)(Cl)Cl (configuration not stated)	FGF22 binding 45
O=C(O)[C@@H]1[C@@H](CO)[C@@H]2Cn3c(ccc(-c4cncnc4)c3=O)[C@H]1N2C(=O)NC1CCCC1	none (no result: PDI turbidity, UUG fidelity)
COC(=O)[C@@H]1[C@@H](CO)[C@@H]2Cn3c(ccc(-c4ccc(F)cc4)c3=O)[C@H]1N2Cc1ccccc1	none (no result: PDI turbidity, UUG fidelity)
O=C(O)c1ccc(Cl)nc1	FGF22 binding 43 (no result: UUG fidelity)
COC(=O)[C@@H]1[C@@H](CO)[C@@H]2Cn3c(cccc3=O)[C@H]1N2Cc1nccs1	none (no result: PDI turbidity, UUG fidelity)
O=C1CNC[C@@H]2[C@@H](c3ccc(Br)cc3)[C@@H](CO)N12	none (no result: PDI turbidity, UUG fidelity)
Cc1ccc(OC(=O)N(C)C[C@@H]2OCc3ccccc3-c3c(n(C)c4ccccc34)C(=O)N([C@@H](C)CO)C[C@H]2C)cc1	none (no result: PDI turbidity, UUG fidelity, FGF22 binding)
Cc1ccc(-n2c(O)c(/C=N/N3CCCCC3c3cccnc3)c(=O)[nH]c2=S)cc1 (configuration not stated)	FGF22 binding 43 (no result: UUG fidelity)
CCCCn1c(O)c(/C=N/N2CCCCC2c2cccnc2)c(=O)[nH]c1=S (configuration not stated)	none (no result: FGF22 binding)
CC1=C2C[C@H]3[C@@H](CC=C4C[C@@H](O)CC[C@@]43C)[C@@H]2CC[C@]12O[C@@H]1C[C@H](C)CN[C@@H]1C2C (some centres not stated)	none (no result: PDI turbidity, UUG fidelity)
CC1(O)CCC2C3CCC4=CC(=O)CCC4=C3C=CC21C (configuration not stated)	FGF22 binding 43 (no result: SIRT5 block)
Cc1cccc(OP(=O)(Nc2ccc(F)cc2)Oc2cccc(C)c2)c1	FGF22 binding 43 (no result: UUG fidelity)
O=C(Cc1ccncc1)N1CCCCN2[C@H](C1)[C@H](c1ccc(C#CC3(O)CCCC3)cc1)[C@@H]2CO	none (no result: PDI turbidity)
CN1CCN(CCOC2c3ccccc3CSc3ccc(Cl)cc32)CC1 (configuration not stated)	PDI turbidity 32 (no result: S100A4 MyoIIA, SIRT5 block, FGF22 binding, ERp5 inh)
CN1C(=O)C(=Cc2ccccc2OCc2ccc(Cl)cc2)C(=O)N(C)C1=O	SIRT5 block 112 (no result: UUG fidelity)
O=C(Cc1ccccn1)N1CC2(C1)[C@H](c1ccccc1)[C@@H](CO)N2Cc1ccccn1	none (no result: PDI turbidity, UUG fidelity)
O=C1C(=O)c2ccccc2-c2ccccc21	PDI turbidity 167
O=C1C(=O)c2cccc3cccc1c23	none (no result: UUG fidelity)
CN1CCN(c2ccc(S(=O)(=O)C(F)(F)F)cc2[N+](=O)[O-])CC1	SIRT5 block 21
O=C(Cc1cccnc1)N1CCCCN2[C@H](CO)[C@@H](c3ccc(/C=C/c4ccccc4)cc3)[C@@H]2C1	none (no result: PDI turbidity)
C=CCC1([C@@H](C)CCC)C(=O)NC(=O)NC1=O	none (no result: SIRT5 block)
CCCC(C)C1(CC)C(=O)NC(=O)N=C1N (configuration not stated)	FGF22 binding 44 (no result: UUG fidelity)
COc1ccc(CCn2c(O)c(C=Nc3ccc(F)cc3)c(=O)[nH]c2=O)cc1OC	SIRT5 block 16
O=C(O)[C@H]1[C@H](CO)[C@H]2Cn3c(ccc(-c4ccncc4)c3=O)[C@@H]1N2C(=O)C1CCCCC1	S100A4 MyoIIA 99 (no result: PDI turbidity)
CN1CCN(c2ccc([N+](=O)[O-])c3no[n+]([O-])c23)CC1	S100A4 MyoIIA 112
O=[N+]([O-])c1ccc(N(CCO)CCO)c2c1no[n+]2[O-]	none (no result: SIRT5 block)
O=C1CNC[C@@H]2[C@H](c3ccc(Br)cc3)[C@@H](CO)N12	none (no result: PDI turbidity, UUG fidelity)
O=C1NC(=O)C(=Cc2ccc(-c3ccc(F)cc3O)o2)C(=O)N1	FGF22 binding 43
O=C1NC(=O)C(=Cc2ccc(-c3ccc(Cl)cc3)o2)C(=O)N1	none (no result: S100A4 MyoIIA, SIRT5 block, FGF22 binding, ERp5 inh)
O=C(O)C(Br)CBr (configuration not stated)	S100A4 MyoIIA 100 (no result: PDI turbidity, SIRT5 block)
c1ccc(CN2CCN(Cc3ccc4ccccc4c3)CC2)cc1	none
CN(C)c1cccc(CN2CCN(c3ccccc3)CC2)c1	SIRT5 block 15 (no result: PDI turbidity)
C/C(=N\N1CCCCCC1)c1c(O)n(-c2ccc(C)cc2)c(=O)[nH]c1=O	FGF22 binding 44
Clc1cccc(CNCCc2c[nH]c3ccccc23)c1	none
OCCNCCc1c[nH]c2ccc(OCc3ccccc3)cc12	SIRT5 block 20
CCN1[C@@H]2c3ccc(-c4cccc(C(=O)N(C)C)c4)c(=O)n3C[C@H]1[C@H](CO)[C@H]2C(=O)OC	none (no result: PDI turbidity, UUG fidelity)
COc1ccc2nc3oc(C(=O)N4CCC5(CC4)OCCO5)cc3cc2c1	FGF22 binding 44 (no result: UUG fidelity)
COc1ccc(C#Cc2ccc([C@H]3[C@H](CO)N4CCCCN(C(=O)Cc5ccncc5)C[C@@H]34)cc2)cc1	none (no result: PDI turbidity)
COc1ccccc1N1C(=O)NC(=O)/C(=C/c2ccc3c(c2)Cc2ccccc2-3)C1=O	FGF22 binding 43 (no result: UUG fidelity)
CCOC(=O)[C@@H]1[C@@H]2NC(=S)N(C)[C@@]1(COCc1ccc(OC)cc1)Oc1ccccc12	none (no result: PDI turbidity)
CCOC(=O)[C@]12Cc3c(cc(OC)c(OC)c3OC)[C@H]1N(C1CCCCC1)C(=O)c1ccccc12	SIRT5 block 20 (no result: PDI turbidity, UUG fidelity)
CCOC(=O)[C@]12Cc3ccc(C)cc3[C@H]1N(C1CCCCC1)C(=O)c1ccccc12	none (no result: PDI turbidity, UUG fidelity)
O=C(Cc1ccncc1)N1CCCCN2[C@H](CO)[C@H](c3ccc(C#Cc4ccccc4F)cc3)[C@H]2C1	none (no result: PDI turbidity)
O=C1NC(=O)C(=Cc2ccco2)C(=O)N1	FGF22 binding 44 (no result: SIRT5 block)
c1cc(-c2ccc(C3[C@H]4CNC[C@@H]3N4CC3CC3)cc2)ccn1 (some centres not stated)	none (no result: PDI turbidity, UUG fidelity, FGF22 binding)
O=C(NCCO)c1nsnc1NCCCl	FGF22 binding 43 (no result: UUG fidelity)
CCOc1ccc(NC(=O)c2c(O)[nH]c(=O)[nH]c2=O)cc1	none
CC(=O)Nc1ccc(OCCF)cc1	FGF22 binding 43 (no result: UUG fidelity)
O=C(Cc1cccnc1)N1CCCCN2[C@@H](CO)[C@@H](c3ccc(C#CC4CC4)cc3)[C@@H]2C1	none (no result: PDI turbidity)

Screens: PubChem BioAssay, Broad Institute
